SMILES strings stand for the structures.

Amino acid sequences for entries named in this document (tags omitted).
UniProt P04049, whole entry Y340E/Y341E: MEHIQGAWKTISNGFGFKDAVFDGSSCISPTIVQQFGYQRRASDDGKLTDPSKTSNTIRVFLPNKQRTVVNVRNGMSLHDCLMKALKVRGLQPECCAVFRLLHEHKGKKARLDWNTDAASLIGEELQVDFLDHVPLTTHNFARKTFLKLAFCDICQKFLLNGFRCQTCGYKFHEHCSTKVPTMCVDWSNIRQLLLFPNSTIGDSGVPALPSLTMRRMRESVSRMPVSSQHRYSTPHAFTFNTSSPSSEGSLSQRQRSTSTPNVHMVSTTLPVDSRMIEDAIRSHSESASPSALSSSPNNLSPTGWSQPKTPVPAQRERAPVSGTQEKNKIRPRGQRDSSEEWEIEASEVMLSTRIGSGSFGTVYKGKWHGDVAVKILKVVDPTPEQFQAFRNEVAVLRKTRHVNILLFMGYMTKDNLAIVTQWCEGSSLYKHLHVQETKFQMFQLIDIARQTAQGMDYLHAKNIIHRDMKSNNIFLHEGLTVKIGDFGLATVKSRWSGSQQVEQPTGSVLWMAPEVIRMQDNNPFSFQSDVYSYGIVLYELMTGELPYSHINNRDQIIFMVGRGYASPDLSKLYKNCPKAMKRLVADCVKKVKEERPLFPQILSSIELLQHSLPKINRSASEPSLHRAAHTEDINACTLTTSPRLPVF

The target of one assay is C-Raf FL (full-length C-Raf protein, Y340E and Y341E activating mutations) (Homo sapiens (Human), UniProt P04049, Y340E/Y341E). It is filed as biochemical. The following applies: AlphaScreen, 60 min pre-incubation, 1 hour reaction; read-out: c-Raf FL IC-50. (Alpha assays give light when donor and acceptor beads are brought close together.)
On to `Cc1ccc(NC(=O)c2cn(C(C)C)nc2C)cc1-c1cc2[nH]cnc2c(N2CCOCC2)n1` [Example 816, 1-isopropyl-3-methyl-N-(4-methyl-3-(4-morpholino-1H-imidazo[4,5-c]pyridin-6-yl)phenyl)-1H-pyrazole-4-carboxamide], for which the IC50 was 1.6 nM.

As for `Cc1ncc(NC(=O)c2ccnc(C(C)(C)C#N)c2)cc1-c1cc(N2CCOCC2)n(C)c(=O)c1` [Example 499, 2-(2-cyanopropan-2-yl)-N-(1′,2-dimethyl-6′-morpholino-6′-oxo-1′,2′-dihydro-[3,4′-bipyridin]-5-yl)isonicotinamide], the IC50 was found to be 3.5 nM. Same read-out and setting: to `Cc1ccc(NC(=O)c2ccnc(C(C)(C)F)c2)cc1-c1cc(N2CCOC[C@H]2C)c(=O)n(C)n1` [Example 673, (R)-2-(2-fluoropropan-2-yl)-N-(4-methyl-3-(1-methyl-5-(3-methylmorpholino)-6-oxo-1,6-dihydropyridazin-3-yl)phenyl)isonicotinamide] belongs 2.7 nM.

The same assay, now with this note: AlphaScreen, 60 min pre-incubation, reaction 1 hour at room temperature; read-out: c-Raf FL IC-50.
On to `Cc1ncc(NC(=O)c2cccc(C(F)(F)F)c2)cc1-c1cc(N2CCNCC2)nc(N2CCOCC2)c1` [Example 1129, N-(2-methyl-2′-morpholino-6′-(piperazin-1-yl)-[3,4′-bipyridin]-5-yl)-3-(trifluoromethyl)benzamide], for which the IC50 was 1.26 nM. Still for that read-out and setting: to `CCOc1cc(-c2cc(NC(=O)c3ccnc(C(C)(C)C#N)c3)cnc2C)cc(N2CCOCC2)n1` [Example 1147, 2-(2-cyanopropan-2-yl)-N-(2′-ethoxy-2-methyl-6′-morpholino-[3,4′-bipyridin]-5-yl)isonicotinamide] belongs 1.52 nM; to `Cc1ccc(NC(=O)c2ccnc(C(C)(F)F)c2)cc1-c1cc(OCCO)nc(N2CCOCC2)c1` [Example 1159, 2-(1,1-difluoroethyl)-N-(3-(2-(2-hydroxyethoxy)-6-morpholinopyridin-4-yl)-4-methylphenyl)isonicotinamide], 0.15 nM. On to `Cc1ccc(NC(=O)c2cnnc(C3(C#N)CC3)c2)cc1-c1cc(N2CCOCC2)c(=O)n(C)c1` [Example 902, 6-(1-cyanocyclopropyl)-N-(4-methyl-3-(1-methyl-5-morpholino-6-oxo-1,6-dihydropyridin-3-yl)phenyl)pyridazine-4-carboxamide], for which the IC50 is 0.7 nM. For `Cc1ncc(NC(=O)c2ccnc(C(C)(F)F)c2)cc1-c1cnc(OC(F)F)c(N2CCOCC2)c1` [Example 980, 2-(1,1-difluoroethyl)-N-(6′-(difluoromethoxy)-2-methyl-5′-morpholino-[3,3′-bipyridin]-5-yl)isonicotinamide], the IC50 turned out to be 0.78 nM.

Staying with this assay, now noted: Table 2; AlphaScreen, 1 hour reaction; read-out: c-Raf FL IC-50.
Regarding `Cc1ncc(NC(=O)c2ccnc(C(F)(F)F)c2)cc1-c1cc(N2CCOCC2)c(=O)n(C)c1` [Example 390, N-(1′,2-dimethyl-5′-morpholino-6′-oxo-1′,6′-dihydro-[3,3′-bipyridin]-5-yl)-2-(trifluoromethyl)isonicotinamide], the IC50 worked out at 1.4 nM. On the same count and under the same terms, to `Cc1ccc(NC(=O)c2ccnc(C(C)(F)F)c2)cc1-c1cc(N2CCOCC2)c(=O)n(C)c1` [Example 178, 2-(1,1-difluoroethyl)-N-(4-methyl-3-(1-methyl-5-morpholino-6-oxo-1,6-dihydropyridin-3-yl)phenyl)isonicotinamide] belongs 0.2 nM; to `COc1ncc(-c2cc(NC(=O)c3ccnc(C(C)C)c3)cnc2C)cc1N1CCOCC1` [Example 323, 2-isopropyl-N-(6′-methoxy-2-methyl-5′-morpholino-[3,3′-bipyridin]-5-yl)isonicotinamide], 2.8 nM.

Regarding `Cn1cc(-c2cc(NC(=O)c3ccnc(C(C)(F)F)c3)ccc2Cl)cc(N2CCOCC2)c1=O` [Example 414, N-(4-chloro-3-(1-methyl-5-morpholino-6-oxo-1,6-dihydropyridin-3-yl)phenyl)-2-(1,1-difluoroethyl)isonicotinamide], the IC50 came to 0.3 nM.

For the compound `Cc1ncc(NC(=O)c2ccnc(C(C)(C)F)c2)cc1-c1cnc(Cl)c(N2CCOCC2)c1` [Example 290, N-(6′-chloro-2-methyl-5′-morpholino-[3,3-bipyridin]-5-yl)-2-(2-fluoropropan-2-yl)isonicotinamide], the IC50 stood at 1.4 nM.

Source of the values: US9694016B2 (Novartis AG, priority 2013, dated 2017).
